Measurements as given in patent publication US20250382308A1, “COMPOUNDS ACTIVE TOWARDS BROMODOMAINS” (NUEVOLUTION A/S, priority 2022, published 2025).

Columns and labels:
[1] = target: second bromodomain of BRD4 (Homo sapiens (Human), UniProt O60885); experiment: Bromoscan binding assay BRD4 (2); conditions: geometric mean where multiple measurements have been made
Protocol: (§1) Compounds were assayed for binding affinity using bromoscan assays and a phosphodiesterase three assay.
(§2) Bromoscan assays were run by DiscoveRx Corporation. The relevant assay names are BRD4 (1) for the first bromodomain of BRD4 and BRD4 (2) for the second bromodomain of BRD4. Further Bromoscan assays covering other bromodomains may be employed to establish the selectivity profile of a compound of interest. To run the Bromoscan assay, a T7 phage strain displaying the relevant bromodomain was grown in parallel in 24-well blocks in an E. coli host derived from the BL21 strain. E. coli were grown to log-phase and infected with T7 phage from a frozen stock (multiplicity of infection=0.4) and incubated with shaking at 32° C. until lysis (90-150 minutes). The lysates were centrifuged (5,000×g) and filtered (0.2 μm) to remove cell debris. Streptavidin-coated magnetic beads were treated with biotinylated small molecule or acetylated peptide ligands for 30 minutes at room temperature to generate affinity resins for bromodomain assays. […] The bromodomain concentration in the eluates was measured by qPCR (quantitative real-time polymerase chain reaction). Binding constants (Kds) were calculated with a standard dose-response curve using the Hill equation: Response=Blackground+((Signal-Background)/(1+Kd^Hill Slope/Dose^Hill Slope)). […]

[2] = target: first bromodomain of BRD4 (Homo sapiens (Human), UniProt O60885); experiment: Bromoscan binding assay BRD4 (1); conditions: geometric mean where multiple measurements have been made
Protocol: as §1
as §2, with “[…] The liganded” for “Streptavidin-coated magnetic”, “blocked” for “treated”, “excess biotin and washed with blocking buffer (SeaBlock (Pierce), 1% BSA (bovine serum albumin), 0.05% Tween 20, 1 mM DTT (dithiothreitol))” for “biotinylated small molecule or acetylated peptide ligands for 30 minutes at room temperature”, “remove unbound ligand and to reduce non-specific phage binding.” for “generate affinity resins for bromodomain assays.”

Structure (SMILES)	Kd [1] [µM]	Kd [2] [µM]
COc1cc(NC(=O)c2cc3c(nc2N2C[C@@H]4C[C@H]2CO4)COC3)cc2c(C)cc(=O)[nH]c12 [Example 23, N-(8-methoxy-4-methyl-2-oxo-1H-quinolin-6-yl)-2-[(1S,4S)-2-oxa-5-azabicyclo[2.2.1]heptan-5-yl]-5,7-dihydrofuro[3,4-b]pyridine-3-carboxamide]	3.2	0.19
COc1cc(NC(=O)c2cc3c(nc2N2C[C@H]4C[C@@H]2CO4)COC3)cc2c(C)cc(=O)[nH]c12 [Example 24, N-(8-methoxy-4-methyl-2-oxo-1H-quinolin-6-yl)-2-[(1R,4R)-2-oxa-5-azabicyclo[2.2.1]heptan-5-yl]-5,7-dihydrofuro[3,4-b]pyridine-3-carboxamide]	0.7	0.028
